Data: ChEMBL document CHEMBL4706631, “Potent and Selective Mitogen-Activated Protein Kinase Kinase 1/2 (MEK1/2) Heterobifunctional Small-molecule Degraders” (J Med Chem, 2020)

Test system: SU-DHL-1
Assay: Antiproliferative activity against human SU-DHL-1 cells incubated for 3 days by WST8 assay
Format: functional
Conditions: SU-DHL-1, 72 h, time 3 day

O=C(NOC[C@H](O)CO)c1ccc(F)c(F)c1Nc1ccc(I)cc1F [MIRDAMETINIB]
GI50: 350 nM
